Experimental data: PubChem BioAssay AID1654 (Sanford-Burnham Center for Chemical Genomics, 2009)
Values joined by “and” are separate entries in the source; they are usually repeats but may differ in a detail not shown here. Identical values can stand only once. This is a selection; strong and weak results do not stand in their true shares. Active and inactive are the calls of the source. No stated cut-off is given here; in the data, active means inhibition above about 50%; inactive means the rest.

By UniProt entry, the sequences of proteins in these tests, tags left out. Where a name states a change or a piece, a line headed by the entry shows the natural chain unless it says otherwise.
UniProt P51452: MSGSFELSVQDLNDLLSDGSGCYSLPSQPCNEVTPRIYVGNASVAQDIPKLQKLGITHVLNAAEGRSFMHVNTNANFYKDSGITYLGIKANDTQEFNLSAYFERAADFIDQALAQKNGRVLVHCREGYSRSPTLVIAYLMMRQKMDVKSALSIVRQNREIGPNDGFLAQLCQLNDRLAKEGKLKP

Target: Dual specificity protein phosphatase 3 (Homo sapiens) (UniProt P51452)
Test: VHR1 phosphatase inhibitors, primary screen, biochemical, absorbance, uHTS (AID 1654)
Conditions: recombinant VHR phosphatase, pNPP absorbance; at 13.3 µM; active compounds read high

| SMILES | inhibition |
| --- | --- |
| CCOC(=O)NC(Sc1ccccc1)C(Cl)(Cl)Cl (stereo unspecified) | inactive: 29.7% |
| Cc1ccc(NP(=O)(Oc2cccc(C)c2)Oc2cccc(C)c2)nc1 | inactive: 33.5% |
| c1ccc(-c2nn[nH]n2)c(-c2nn[nH]n2)c1 | inactive: 16.5% |
| CCNC(=S)/N=C(\N)N[N+](=O)[O-] | inactive: 2% |
| O=C(NC1CCS(=O)(=O)C1)NP(=S)(Oc1ccccc1)Oc1ccccc1 (stereo unspecified) | inactive: 1.5% |
| CCC(=O)N1C2C3N(C(=O)CC)C1C1N(C(=O)CC)C(C(N1C(=O)CC)N3C(=O)CC)N2C(=O)CC | inactive: 32.9% |
| O=C(OC1CN2CCC1CC2)c1ccccc1 (stereo unspecified) | inactive: 26.3% |
| Cc1ccc(OP(=O)(Nc2ccccn2)Oc2ccc(C)cc2)cc1 | inactive: 2.8% |
| CC(=O)NC(SC(=S)N(CC(C)C)CC(C)C)C(Cl)(Cl)Cl (stereo unspecified) | inactive: -14.2% |
| COC(=O)c1cc2c(s1)N=C(c1ccccc1)N(C)P2(=O)N1CCOCC1 (stereo unspecified) | inactive: 31.6% |
| CN(C)C(=O)Oc1noc2ccccc12 | inactive: 34.9% |
| O=c1c2cc([N+](=O)[O-])ccc2[nH]c2c([N+](=O)[O-])cc([N+](=O)[O-])cc12 | inactive: 14.7% |
| Cc1ccccc1OP(=O)(Nc1ccccn1)Oc1ccccc1C | inactive: 17.2% |
| CCOc1ccc(C2=NCC(CBr)S2)cc1 (stereo unspecified) | inactive: 9% |
| CC(C)(C)C(=O)NC(Sc1ccccc1)C(Cl)(Cl)Cl (stereo unspecified) | inactive: 24.3% |
| C[C@@H]1C=CCP(=O)(Oc2ccccc2)O1 (stereo partly specified) | inactive: 6.5% |
| C[C@H]1OP(=O)(Oc2ccccc2)C[C@@H]2O[C@@H]21 (stereo partly specified) | inactive: 14.2% |
| CC(=O)c1ccc(N2CC2c2ccncc2)cc1 (stereo unspecified) | inactive: 3% |
| CC(=O)Nc1ccc(Oc2c([N+](=O)[O-])cc([N+](=O)[O-])cc2[N+](=O)[O-])cc1 | inactive: 22.2% |
| CC(=O)Nc1ccc([As](=O)(O)O)c(O)c1 | inactive: -11% |
| CC(C)C(=O)NC(Sc1ccccc1)C(Cl)(Cl)Cl (stereo unspecified) | inactive: 46.3% |
| O=P(Nc1nccs1)(c1ccccc1)c1ccccc1 | inactive: 7.2% |
| c1nnnn1CCn1cnnn1 | inactive: 11.9% |
| O=P(Nc1ccccn1)(c1ccc(Br)cc1)c1ccc(Br)cc1 | inactive: 21.5% |
| CN(C)C1(CNC(=O)c2ccc(Cl)c(S(N)(=O)=O)c2)CCCCC1 | inactive: 0.1% |
| C[C@H]1OP(=O)(Oc2ccccc2)[C@H](O)[C@H](O)[C@H]1N=[N+]=[N-] (stereo partly specified) | inactive: 14.2% |

| SMILES | inhibition |
| --- | --- |
| O=P(Nc1nc2ccccc2s1)(c1ccccc1)c1ccccc1 | inactive: 16.6% |
| O=[As](O)(c1ccccc1)c1ccc(O)cc1 | inactive: -14.1% |
| O=[N+]([O-])c1ccc(O)c(/C=N/Nc2ccc([N+](=O)[O-])cc2[N+](=O)[O-])c1 | inactive: -17.9% |
| O=[N+]([O-])c1ncn(CCn2cnc([N+](=O)[O-])n2)n1 | inactive: 28.8% |
| CC(=O)NC(SC(=S)N(C)C)C(Cl)(Cl)Cl (stereo unspecified) | inactive: -5.4% |
| O=C(OC1CN2CCC1CC2)c1cccc(Cl)c1 (stereo unspecified) | inactive: -1% |
| Nc1ccc([As](=O)(O)c2ccc([N+](=O)[O-])cc2)cc1 | inactive: 29.8% |
| C(Cc1nn[nH]n1)Cc1nn[nH]n1 | inactive: 13.5% |
| O=C(Nc1cc([As](=O)(O)O)ccc1O)c1ccccc1 | inactive: 36% |
| O=[N+]([O-])c1ncn(CCn2ncnc2[N+](=O)[O-])n1 | inactive: 14.4% |
| CC(C)(C)C(=O)NC(Sc1ccncn1)C(Cl)(Cl)Cl (stereo unspecified) | inactive: -3.6% |
| O=C(O)CNc1ccc([As](=O)(O)O)cc1 | inactive: 20.7% |
| O=[N+]([O-])c1cccc(NC2=NCC(CBr)S2)c1 (stereo unspecified) | inactive: 21.1% |
| COc1ccc(C2=NCC(CBr)S2)cc1 (stereo unspecified) | inactive: 8.3% |
| CCc1nc2c(n1)c1c(non1O)c1c2no[n+]1[O-] | inactive: -5.9% |
| O=[N+]([O-])c1cc([N+](=O)[O-])c(CCNc2ccccc2)c([N+](=O)[O-])c1 | inactive: -5.3% |
| Cc1ccc(NP(=O)(Oc2ccccc2)Oc2ccccc2)nc1 | inactive: 11.9% |
| O=[N+]([O-])c1cccc2n[nH]nc12 | inactive: -2.4% |
| CC(=O)N1C2C3N(C(C)=O)C1C1N(C(C)=O)C(C(N1C(C)=O)N3C(C)=O)N2C(C)=O | inactive: 20.5% |
| CCN(/C(=N/P(=O)(N1CCOCC1)N1CCOCC1)N1CCOCC1)c1ccc(OC)cc1 | inactive: 4.8% |
| C[N+]1=C2C=CC=CC=C2SC12C([N+](=O)[O-])=CC([N+](=O)[O-])=C[C-]2[N+](=O)[O-] (stereo unspecified) | inactive: 20.5% |
| Nc1ccc([As](=O)(O)c2ccc(N)cc2)cc1 | inactive: 35.5% |
| CC1CCN(C(=O)Oc2c(Cl)cc(Cl)c3cccnc23)CC1 | inactive: 31.1% |
| CN(C)C(=O)OCCc1n(C)cc[n+]1C | inactive: -2.7% |
| CC(C)=N/N=C(\N)N[N+](=O)[O-] | inactive: -7.7% |
| Cc1ccc(N/C(=N/P(=O)(N2CCOCC2)N2CCOCC2)N2CCOCC2)cc1 | inactive: 19% |

| SMILES | inhibition |
| --- | --- |
| NC(=O)c1cc([N+](=O)[O-])cc([N+](=O)[O-])c1N | inactive: 4.8% |
| Clc1ccc(Cl)c(NC2=NCC(CBr)S2)c1 (stereo unspecified) | inactive: -6.2% |
| CN1CCCC(OC(=O)C(c2ccccc2)c2ccccc2)C1 (stereo unspecified) | inactive: -4.6% |
| Cc1ccc(OP(=O)(Nc2nccs2)Oc2ccc(C)cc2)cc1 | inactive: 21.3% |
| COc1ccccc1OP(=O)(Nc1ccc(C)cn1)Oc1ccccc1OC | inactive: 19.8% |
| Cc1c2non([O-])c-2c(C)[n+](=O)[n+]1[O-] | inactive: 1.5% |
| O=C(NC(Sc1ccncn1)C(Cl)(Cl)Cl)c1ccccc1 (stereo unspecified) | inactive: -4.8% |
| Oc1ccccc1CNc1ccccn1 | inactive: 24.3% |
| CC(C)CC(=O)NC(Sc1ccc(Cl)cc1)C(Cl)(Cl)Cl (stereo unspecified) | inactive: 31.1% |
| Nc1cc(N)c2nonc2c1[N+](=O)[O-] | inactive: 16.5% |
| O=P(Nc1nc2ccc(Cl)cc2s1)(c1ccccc1)c1ccccc1 | inactive: 20.1% |
| O=C(O)c1ccccc1[As](=O)(O)O | inactive: 26.9% |
| CC(=O)Nc1ccc([As](=O)(O)O)cc1 | inactive: 22.8% |
| Cc1ccc(NP(=O)(Oc2ccccc2F)Oc2ccccc2F)nc1 | inactive: 31% |
| CCOP(=O)(Nc1ccccc1)OCC | inactive: 31.8% and inactive: 7.7% |
| Cc1cc(SC(NC(=O)c2ccc(F)cc2)C(Cl)(Cl)Cl)ncn1 (stereo unspecified) | inactive: 17.6% |
| Nc1cccc2ccc([As](=O)(O)O)cc12 | inactive: 13.1% |
| CCN(N=Nc1nonc1N)c1nonc1N | inactive: 16.9% |
| C[As](=O)(O)c1cccc(C(=O)O)c1 | inactive: 26.9% |
| O=[As](O)(c1ccc(O)cc1)c1ccccc1O | inactive: 23.9% |
| Cc1ccc(OP(=O)(Nc2ccc([N+](=O)[O-])cn2)Oc2ccc(C)cc2)cc1 | inactive: 31.5% |
| Cc1ccc2nc3c(c(C)c2c1)CC(C(Cl)Cl)S3 (stereo unspecified) | inactive: 8.3% |
| ClCCSc1nnc(-c2cccnc2)o1 | inactive: -13.2% |
| CC(C)c1ccc(OP(=O)(Nc2ccccn2)Oc2ccccc2F)cc1 (stereo unspecified) | inactive: 32.9% |
| O=[N+]([O-])c1cc([N+](=O)[O-])c(-c2ccn[nH]2)s1 | inactive: -8.4% |
| CCN(CC)C(=S)SC(NC=O)C(Cl)(Cl)Cl (stereo unspecified) | inactive: 23.5% |

| SMILES | inhibition |
| --- | --- |
| CC(C)NC(=O)NP(=O)(Oc1ccccc1)Oc1ccccc1 | inactive: 12.9% |
| Cc1c2c(nc3ccccc13)SC(C(Cl)Cl)C2 (stereo unspecified) | inactive: -3.9% |
| Cc1cc(=O)[nH]c(N[N+](=O)[O-])n1 | inactive: -7% |
| O=C(OC1CN2CCC1CC2)C12CC3CC(CC(C3)C1)C2 (stereo unspecified) | inactive: 11.3% |
| COc1cc(I)ccc1[As](=O)(O)O | inactive: 4.9% |
| COc1ccc(N/C(=N/P(=O)(N2CCOCC2)N2CCOCC2)N2CCOCC2)cc1 | inactive: 16% |
| COP1(=S)c2c(C)nn(CCC#N)c2N=C(c2ccc(F)cc2)N1C (stereo unspecified) | inactive: 20.7% |
| O=C(Nc1ccncc1[N+](=O)[O-])c1ccc([N+](=O)[O-])cc1[N+](=O)[O-] | inactive: 13% |
| O=C(COc1ccccc1)OC1CN2CCC1CC2 (stereo unspecified) | inactive: 3.6% |
| O=C(OC1CN2CCC1CC2)c1cccc([N+](=O)[O-])c1 (stereo unspecified) | inactive: 12.5% |
| CCOC(=O)c1ccc(NC(=O)C(C)(CCl)SC)cc1 (stereo unspecified) | inactive: 36.8% |
| CCC(C)N(CC(C)C)C(=S)SC(NC(C)=O)C(Cl)(Cl)Cl (stereo unspecified) | inactive: 8.9% |
| CCOC(=O)Nc1ccc([As](=O)(O)O)c(O)c1 | inactive: 4.9% |
| Cc1cc(SC(NC(=O)c2ccccc2)C(Cl)(Cl)Cl)nc(C(C)C)n1 (stereo unspecified) | active: 55.4% |
| CCCCOc1ccc(C(=O)NCC2(N3CCCCC3)CCCCC2)cc1OC | inactive: 16% |
| CCOC(=O)Nc1cccc([As](=O)(O)O)c1 | inactive: 41.5% |
| O=P(Nc1ccccn1)(c1cccc2ccccc12)c1cccc2ccccc12 | inactive: 26.4% |
| Cc1cc(SC(NC=O)C(Cl)(Cl)Cl)ncn1 (stereo unspecified) | inactive: -0.2% |
| O=[N+]([O-])c1ccc(Nc2ccc(Oc3ccc([N+](=O)[O-])cc3[N+](=O)[O-])cc2)c([N+](=O)[O-])c1 | inactive: 24.4% |
| CC1CCC(C(C)C)C(OP(=O)(Nc2ccccn2)c2ccccc2)C1 (stereo unspecified) | inactive: 14.4% |
| Cc1ccc(C(=O)OC2CN3CCC2CC3)cc1 (stereo unspecified) | inactive: -17.8% |
| Cc1nn(-c2ccccc2)c2c1P(=O)(N1CCOCC1)N(C)C(c1ccccc1)=N2 (stereo unspecified) | inactive: 9.4% |
| CN(C)C1(CNC(=O)c2ccc(S(C)(=O)=O)cc2)CCCCC1 | inactive: 12.9% |
